Cyclic peptide permeability, from CycPeptMPDB

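Conditions beyond the assay type are not listed; see the original paper. Other peptides of the study may be missing here. Peptides that the database sets to -10, its floor, are left out.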

PAMPA is the parallel artificial membrane permeability assay, which has no cells and reads passive diffusion.
P is given in units of 10^-6 cm/s (from log10 values with two decimals); larger means faster passage.

{"smiles": "CC(=O)N1CCC[C@H]1C(=O)N(C)[C@H](CC(C)C)C(=O)N[C@@H]1C(=O)N[C@@H](CC(C)C)C(=O)N[C@@H](CC(C)C)C(=O)N[C@@H](CC(C)C)C(=O)N[C@@H](C)C(=O)N[C@H](CC(C)C)C(=O)N2CCC[C@H]2C(=O)O[C@@H]1C", "PAMPA (10^-6 cm/s)": "0.32"}
{"smiles": "CC(=O)N1CCC[C@H]1C(=O)N(C)[C@H](CC(C)C)C(=O)N[C@@H]1C(=O)N[C@H](CC(C)C)C(=O)N(C)[C@H](CC(C)C)C(=O)N[C@H](CC(C)C)C(=O)N(C)[C@H](C)C(=O)N[C@@H](CC(C)C)C(=O)N2CCC[C@@H]2C(=O)O[C@@H]1C", "PAMPA (10^-6 cm/s)": "6.2"}
{"smiles": "CC(=O)N1CCC[C@H]1C(=O)N(C)[C@H](CC(C)C)C(=O)N[C@@H]1C(=O)N(C)[C@@H](CC(C)C)C(=O)N[C@H](CC(C)C)C(=O)N[C@H](CC(C)C)C(=O)N[C@@H](C)C(=O)N[C@H](CC(C)C)C(=O)N2CCC[C@H]2C(=O)O[C@@H]1C", "PAMPA (10^-6 cm/s)": "0.3"}
{"smiles": "CC(=O)N[C@@H]1C(=O)N2CCC[C@H]2C(=O)N(C)[C@H](CC(C)C)C(=O)N(C)[C@@H](CC(C)C)C(=O)N(C)[C@@H](CC(C)C)C(=O)N(C)[C@H](CC(C)C)C(=O)N(C)[C@H](C)C(=O)N[C@@H](CC(C)C)C(=O)N2CCC[C@@H]2C(=O)O[C@@H]1C", "PAMPA (10^-6 cm/s)": "7.9"}
{"smiles": "CC(=O)N1CCC[C@@H]1C(=O)N(C)[C@H](CC(C)C)C(=O)N[C@@H]1C(=O)N[C@@H](CC(C)C)C(=O)N[C@@H](CC(C)C)C(=O)N(C)[C@H](CC(C)C)C(=O)N(C)[C@@H](C)C(=O)N[C@H](CC(C)C)C(=O)N2CCC[C@@H]2C(=O)O[C@@H]1C", "PAMPA (10^-6 cm/s)": "0.52"}
{"smiles": "CC(=O)N1CCC[C@H]1C(=O)N(C)[C@@H](CC(C)C)C(=O)N[C@@H]1C(=O)N(C)[C@@H](CC(C)C)C(=O)N(C)[C@H](CC(C)C)C(=O)N(C)[C@@H](CC(C)C)C(=O)N(C)[C@H](C)C(=O)N[C@H](CC(C)C)C(=O)N2CCC[C@@H]2C(=O)O[C@@H]1C", "PAMPA (10^-6 cm/s)": "4.4"}
{"smiles": "CC(=O)N1CCC[C@H]1C(=O)N(C)[C@@H](CC(C)C)C(=O)N[C@@H]1C(=O)N[C@@H](CC(C)C)C(=O)N(C)[C@@H](CC(C)C)C(=O)N[C@H](CC(C)C)C(=O)N(C)[C@H](C)C(=O)N[C@@H](CC(C)C)C(=O)N2CCC[C@@H]2C(=O)O[C@@H]1C", "PAMPA (10^-6 cm/s)": "9.5"}
{"smiles": "CC(=O)N1CCC[C@H]1C(=O)N[C@@H]1C(=O)N[C@H](CC(C)C)C(=O)N(C)[C@@H](CC(C)C)C(=O)N(C)[C@H](CC(C)C)C(=O)N(C)[C@@H](CC(C)C)C(=O)N(C)[C@@H](C)C(=O)N[C@@H](CC(C)C)C(=O)N2CCC[C@@H]2C(=O)O[C@@H]1C", "PAMPA (10^-6 cm/s)": "7.6"}
{"smiles": "CC(=O)N1CCC[C@H]1C(=O)N[C@@H]1C(=O)N[C@H](CC(C)C)C(=O)N[C@H](CC(C)C)C(=O)N[C@@H](CC(C)C)C(=O)N(C)[C@H](CC(C)C)C(=O)N(C)[C@H](C)C(=O)N[C@@H](CC(C)C)C(=O)N2CCC[C@@H]2C(=O)O[C@@H]1C", "PAMPA (10^-6 cm/s)": "1.5"}
{"smiles": "CC(=O)N1CCC[C@H]1C(=O)N(C)[C@H](CC(C)C)C(=O)N[C@@H]1C(=O)N[C@@H](CC(C)C)C(=O)N[C@@H](CC(C)C)C(=O)N[C@H](CC(C)C)C(=O)N[C@@H](C)C(=O)N[C@@H](CC(C)C)C(=O)N2CCC[C@@H]2C(=O)O[C@@H]1C", "PAMPA (10^-6 cm/s)": "0.27"}
{"smiles": "CC(=O)N1CCC[C@H]1C(=O)N(C)[C@@H](CC(C)C)C(=O)N[C@@H]1C(=O)N[C@H](CC(C)C)C(=O)N(C)[C@@H](CC(C)C)C(=O)N[C@H](CC(C)C)C(=O)N(C)[C@H](C)C(=O)N[C@@H](CC(C)C)C(=O)N2CCC[C@H]2C(=O)O[C@@H]1C", "PAMPA (10^-6 cm/s)": "3.3"}
{"smiles": "CC(=O)N1CCC[C@H]1C(=O)N(C)[C@H](CC(C)C)C(=O)N[C@@H]1C(=O)N[C@@H](CC(C)C)C(=O)N(C)[C@@H](CC(C)C)C(=O)N(C)[C@H](CC(C)C)C(=O)N[C@@H](C)C(=O)N[C@@H](CC(C)C)C(=O)N2CCC[C@H]2C(=O)O[C@@H]1C", "PAMPA (10^-6 cm/s)": "0.23"}
{"smiles": "CC(=O)N1CCC[C@@H]1C(=O)N(C)[C@@H](CC(C)C)C(=O)N[C@@H]1C(=O)N[C@@H](CC(C)C)C(=O)N[C@@H](CC(C)C)C(=O)N(C)[C@@H](CC(C)C)C(=O)N(C)[C@@H](C)C(=O)N[C@H](CC(C)C)C(=O)N2CCC[C@@H]2C(=O)O[C@@H]1C", "PAMPA (10^-6 cm/s)": "1.9"}

Repeated from above, the 2 entries with the highest PAMPA:

{"smiles": "CC(=O)N1CCC[C@H]1C(=O)N(C)[C@@H](CC(C)C)C(=O)N[C@@H]1C(=O)N[C@@H](CC(C)C)C(=O)N(C)[C@@H](CC(C)C)C(=O)N[C@H](CC(C)C)C(=O)N(C)[C@H](C)C(=O)N[C@@H](CC(C)C)C(=O)N2CCC[C@@H]2C(=O)O[C@@H]1C", "PAMPA (10^-6 cm/s)": "9.5"}
{"smiles": "CC(=O)N[C@@H]1C(=O)N2CCC[C@H]2C(=O)N(C)[C@H](CC(C)C)C(=O)N(C)[C@@H](CC(C)C)C(=O)N(C)[C@@H](CC(C)C)C(=O)N(C)[C@H](CC(C)C)C(=O)N(C)[C@H](C)C(=O)N[C@@H](CC(C)C)C(=O)N2CCC[C@@H]2C(=O)O[C@@H]1C", "PAMPA (10^-6 cm/s)": "7.9"}

Data: CycPeptMPDB; original report Kelly et al. 2021, doi:10.1021/jacs.0c06115.